Data published in publication PMC5218821, “Effect of a Soluble Epoxide Hydrolase Inhibitor, UC1728, on LPS-Induced Uveitis in the Rabbit” (Journal of ocular biology, 2016).

Protein sequences, listed by entry. Tags and fused reporters are not part of them. Residues count along the entry.
UniProt A0A5F9CRP6, 1-555: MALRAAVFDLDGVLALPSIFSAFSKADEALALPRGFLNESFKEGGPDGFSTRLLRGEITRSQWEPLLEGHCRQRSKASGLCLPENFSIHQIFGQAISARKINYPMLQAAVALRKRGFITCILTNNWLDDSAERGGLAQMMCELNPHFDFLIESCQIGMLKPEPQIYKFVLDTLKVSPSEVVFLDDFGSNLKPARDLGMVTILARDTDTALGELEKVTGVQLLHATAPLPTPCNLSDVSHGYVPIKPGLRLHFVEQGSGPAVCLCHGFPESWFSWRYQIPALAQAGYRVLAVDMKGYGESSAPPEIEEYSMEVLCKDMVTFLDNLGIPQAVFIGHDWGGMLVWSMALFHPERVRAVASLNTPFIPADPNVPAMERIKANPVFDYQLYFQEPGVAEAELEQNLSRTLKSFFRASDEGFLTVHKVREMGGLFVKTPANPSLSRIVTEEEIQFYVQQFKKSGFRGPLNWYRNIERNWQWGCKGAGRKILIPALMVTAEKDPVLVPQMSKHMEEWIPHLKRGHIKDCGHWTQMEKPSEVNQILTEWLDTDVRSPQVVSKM

Biological target: T1, soluble epoxide hydrolase (sEH) (Oryctolagus cuniculus, UniProt A0A5F9CRP6)
T1 construct: gene ADAM2
Assay: biochemical

IC50: 2 nM
Structure (SMILES): O=C(Nc1ccc(OC(F)(F)F)cc1)N[C@H]1CC[C@H](Oc2ccc(C(=O)O)cc2)CC1 [UC1728, trans-4-{4-[3-(4-Trifluoromethoxy-phenyl)-ureido]-cyclohexyloxy}-benzoic acid]
